Measured values published in PubChem BioAssay AID493195 (Broad Institute, 2011).
The entries are a selection whose mix differs from that of the whole data set. Activity calls are given as the source filed them.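 Rule for the calls: active = fitted dose curve reaching 40% activation within the tested dose range; inconclusive = no clear call, values can overlap the other calls; inactive = the rest, or activity opposite the expected rise.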

Test: HRE-luciferase reporter activators in U2OS cells, dose response, cell-based, luminescence, U2OS HRE-luc, dry powder, set 6 (AID 493195)
Conditions: HIF activation, at 38 µM (top of the series)
Outline: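 Compound: 8-point threefold series, 7.5 mM top stock, pin-transferred | System: Human U2OS osteosarcoma cells stably carrying 3×HRE-luciferase reporter | Quantity: 6,000 cells per well | Measured by: Luciferase luminescence | Schedule: 24 h cell rest, then 24 h compound exposure, 37 °C, 21% O2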

For `O=c1[nH]c2ccccc2n1C1CCN(Cc2ccc(O)c3ncccc23)CC1`, the activation was inactive: 1.24%.
